Source: publication PMC10461227, “Discovery of AD258 as a Sigma Receptor Ligand with Potent Antiallodynic Activity” (Journal of Medicinal Chemistry, 2023)
Counter-ions that a name gives are not always drawn.

Test system: capsaicin-induced mechanical hypersensitivity (allodynia) in mice
Test: Capsaicin-induced mechanical hypersensitivity (allodynia) in mice
Type: in vivo

CN1CCN(CCc2ccc(Cl)c(Cl)c2)CC1 [BD1063, 1-[2-(3,4-dichlorophenyl)ethyl]-4-methylpiperazine dihydrochloride, reference compound]
effect of PRE-084 on the antiallodynic effect of the compound (PRE-084 32 mg/kg s.c. given 5 min before the compound at its dose of maximum effect): fully reversed
antiallodynic effect on capsaicin-induced allodynia (in words) (s.c., 30 min before capsaicin): dose-dependent and full reversal of capsaicin-induced allodynia
dose of maximum antiallodynic effect (s.c., capsaicin-induced mechanical hypersensitivity): 40 mg/kg
